Results taken from ChEMBL document CHEMBL1136802, “Receptor-guided alignment-based comparative 3D-QSAR studies of benzylidene malonitrile tyrphostins as EGFR and HER-2 kinase inhibitors” (J Med Chem, 2003).

Amino acid sequences for entries named in this document (tags omitted).
UniProt P04626, whole entry: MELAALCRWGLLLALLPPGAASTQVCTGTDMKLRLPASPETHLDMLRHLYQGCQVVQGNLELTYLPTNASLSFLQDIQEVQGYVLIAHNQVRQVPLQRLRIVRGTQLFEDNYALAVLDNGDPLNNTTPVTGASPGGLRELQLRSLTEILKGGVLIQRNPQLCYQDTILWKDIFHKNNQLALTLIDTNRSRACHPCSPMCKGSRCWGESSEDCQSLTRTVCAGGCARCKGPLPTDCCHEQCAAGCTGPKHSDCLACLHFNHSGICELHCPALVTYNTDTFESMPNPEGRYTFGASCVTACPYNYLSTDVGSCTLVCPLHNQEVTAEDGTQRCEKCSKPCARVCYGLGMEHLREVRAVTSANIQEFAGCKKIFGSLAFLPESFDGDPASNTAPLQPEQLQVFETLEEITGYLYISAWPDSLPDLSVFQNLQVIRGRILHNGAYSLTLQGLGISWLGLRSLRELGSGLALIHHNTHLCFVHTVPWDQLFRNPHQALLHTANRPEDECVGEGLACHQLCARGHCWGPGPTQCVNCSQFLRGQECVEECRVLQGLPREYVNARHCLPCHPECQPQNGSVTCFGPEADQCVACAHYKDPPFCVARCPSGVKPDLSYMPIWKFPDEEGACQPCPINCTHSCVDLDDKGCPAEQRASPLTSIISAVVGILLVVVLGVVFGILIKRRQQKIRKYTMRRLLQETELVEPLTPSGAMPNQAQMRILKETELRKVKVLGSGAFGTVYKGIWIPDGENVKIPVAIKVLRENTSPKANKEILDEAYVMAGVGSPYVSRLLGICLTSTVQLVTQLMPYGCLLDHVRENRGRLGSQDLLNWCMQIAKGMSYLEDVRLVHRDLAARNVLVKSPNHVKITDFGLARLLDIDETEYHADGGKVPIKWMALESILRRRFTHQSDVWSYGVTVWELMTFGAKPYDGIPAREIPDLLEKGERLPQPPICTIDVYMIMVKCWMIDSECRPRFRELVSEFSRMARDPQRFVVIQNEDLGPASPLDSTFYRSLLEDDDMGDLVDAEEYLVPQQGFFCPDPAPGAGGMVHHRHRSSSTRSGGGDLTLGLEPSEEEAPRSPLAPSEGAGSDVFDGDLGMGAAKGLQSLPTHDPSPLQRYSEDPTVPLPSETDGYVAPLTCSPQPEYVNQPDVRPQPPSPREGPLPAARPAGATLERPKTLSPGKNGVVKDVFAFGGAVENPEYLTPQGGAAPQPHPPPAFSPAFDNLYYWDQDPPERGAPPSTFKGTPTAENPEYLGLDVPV

Molecular target: Receptor tyrosine-protein kinase erbB-2 (Homo sapiens, UniProt P04626)
Assay: Inhibitory activity tested against protein kinase HER-2

IC50: 8.71 µM
SMILES: COc1cc(/C=C(\C#N)C(N)=O)cc(CSC2=NCCS2)c1O
